Test results: PubChem BioAssay AID1259344 (Tox21, 2017)
Only a part is listed here, and it is no random draw. Results filed as inconclusive are left out. Active and inactive are the calls of the source. The call rests on the fitted dose curve; in most records, active means well fitted activation curve with a large enough effect; inconclusive means small, poorly fitted or top-dose-only effect; inactive means flat fitted curve, though single readings scatter.

Experiment: qHTS assay to identify small molecule phospholipidosis (PLD) inducers
Conditions: HepG2 phospholipidosis, LipidTOX Red imaging, 24 h; at 38.3 µM (top of the series) unless noted
Excerpt: National Center for Advancing Translational Sciences [NCATS]
Drug-induced Phospholipidosis (PLD) caused by cationic amphiphilic drugs is characterized by the appearance of unicentric or multicentric-lamellar bodies when viewed under electron microscope. Electron microscopy is the gold standard method for PLD detection, however, this method is time-consuming and labor intensive, making it unsuitable for evaluating a large set of compounds. A cell-based phospholipidosis assay has been developed using the LipidTox reagent in HepG2 cells and miniaturized into a 1536-well plate format. Drug induced phospholipid accumulation is stained with the LipidTox dyes in red color which then is determined using an automated high content screening system.
HepG2 cells are dispensed at 900 cells/3 uL/well into Collagen I-coated 1536-well black-wall/clear-bottom assay plates (Greiner Bio-One, Monroe, NC) using the Multidrop Combi 8 channel dispenser (Thermo Fisher, Waltham, MA, USA). The assay plates are incubated at 37 C for 4 hours to allow the cell attachment. 3 uL of 1:500 LipidTOX Red dye is added using the dispenser, and then 23 nL compounds are added via a Wako Pintool station (Wako Automation, San Diego, CA). Amiodarone, a known PLD inducer, was used as a positive control and DMSO was used as a negative control. The assay plates were then incubated at 37 C for 24 hours.
For fixations, 4 uL of 8% paraformaldehyde fixative solution containing 10 ug/mL Hoechst 33342 in Dulbecco's phosphate-buffered saline (DPBS) is added using a Kalypsys washer/dispenser (Kalypsys, San Diego, CA, USA). After incubation at room temperature for 30 min, the assay plates are washed once with DPBS using a Kalypsys washer/dispenser. The assay plates are then sealed and stored at 4 C before imaging. The fluorescence intensities (595 nm excitation, 615 nm emission for LipidTOX; 352 nm excitation, 461 nm emission for Hoechst 33342) are measured using an ImageXpress Micro Widefield High Content Screening System (Molecular Devices, Sunnyvale, CA, USA) with a 20x Plan Fluor objective. Images are acquired for one site in each well and analyzed with the MetaXpress software (Molecular Devices) using the Transfluor module. Several algorithmic outputs, such as pit count per well, pit count per cell, pit integrated intensity per well, and pit integrated intensity per cell, are used for quantitative image analysis for PLD.
On the % scale 0 is the no-effect control and ±100 the full control effect.

SMILES	PLD induction
O=C(OC1CN2CCC1CC2)c1ccccc1 (stereo unspecified)	inactive: -0.324%
CN(C(=O)Cc1ccccc1)[C@H]1CC[C@@]2(CCCO2)C[C@@H]1N1CCCC1	inactive: 0.465%
Cc1cc([N+](=O)[O-])cc([N+](=O)[O-])c1O	inactive: -6.61% [at 78.4 µM]
CCNC(C)Cc1ccc2c(c1)OCO2 (stereo unspecified)	inactive: -3.31% [at 78.4 µM]
NC(=O)Nc1ccc([As](=O)(O)O)cc1	inactive: -0.517%
CN(C(=O)Cc1ccc(Cl)c(Cl)c1)[C@H]1CC[C@@]2(CCCO2)C[C@@H]1N1CCCC1	inactive: -2.71%
